Results from patent EP4821512A1, “RADIOLABELED COLLAGEN HYBRIDIZING PEPTIDE AND PREPARATION METHOD THEREFOR AND USE THEREOF” (dated 2026).

Assays:
denatured collagen [1] = test: Response to anti-fibrotic therapy: ex vivo lung fluorescence imaging of ^68Ga-Cy5-CHP probe uptake in bleomycin-injured mice; conditions: lungs imaged at 4 h
Description: This test example utilized the ^68Ga-Cy5-CHP probe prepared in Example 2 to characterize the in vivo response of mice to two different anti-fibrotic treatments, further proving that the probe developed in the present disclosure can be used not only for disease detection imaging but also to reflect the dynamic changes of ECM remodeling, guiding mechanistic studies of disease progression and efficacy studies in drug development. The specific characterization methods of this test example were as follows:
As one of the two conditionally recommended therapies for IPF in clinical practice, PFD exerts anti-fibrotic effects by inhibiting fibroblast proliferation and differentiation, in addition to inhibiting TGF-β1 production and collagen synthesis. PFD inhibits the synthesis and degradation of collagen. […] On the 21st day after modeling, ^68Ga-Cy5-CHP was injected into the tail vein of the mice, and the lungs were harvested for fluorescence imaging at 4 h.
It was first hypothesized that fibrotic lungs treated with DHX would show less collagen accumulation but higher levels of collagen degradation and denaturation compared to the untreated BM control group. […] On the 24th day after modeling, ^68Ga-Cy5-CHP was injected into the tail vein of the mice, and the lungs were harvested for fluorescence imaging at 4 h.

[2] = In vitro stability analysis by radioactive TLC in PBS and FBS; conditions: 37 °C, 2 h, TLC every 30 min
Method: The ^68Ga-Cy3-CHP probe prepared in Example 1 was placed in 1x PBS and 10% fetal bovine serum (FBS) solutions, incubated at 37 °C for 2 h, and subjected to radioactive TLC detection every 30 min.

denatured collagen [3] = test: 1 h dynamic PET-CT and ex vivo biodistribution, CFPAC-1 subcutaneous tumor model
Method: In this test example, ^68Ga-Cy3-CHP prepared in Example 1 was used as a sample to evaluate the in vivo targeting specificity of the radiolabeled CHP-PET probe constructed in the present disclosure toward denatured collagen. The specific methods were as follows: First, a mouse subcutaneous tumor model was constructed using the human pancreatic cancer cell line CFPAC-1 (3×10^6 CFPAC-1 cells were injected into the right shoulder/back of 6-week-old female Balb/c-nu nude mice; experiments were conducted when the subcutaneous tumors reached 200 mm^3). The mice were divided into three groups. In two of the groups, the subcutaneous tumor-bearing mice were injected via the tail vein with approximately 8.42 MBq of either the denatured collagen-targeting probe ^68Ga-Cy3-CHP or the non-targeting probe ^68Ga-Cy3-^SCHP (the probe prepared in Comparative Example 1). Another group of mice was pre-injected with a blocking dose of the non-radiolabeled precursor probe NOTA-Cy3-CHP before being injected with ^68Ga-Cy3-CHP (blocking group). Dynamic PET-CT imaging was performed for 1 h.
To verify the PET imaging results, the mice were euthanized after the 1 h dynamic PET imaging, and the tumors were harvested for ex vivo biodistribution analysis, calculated as a percentage of the injected dose per gram (% ID/g).

denatured collagen [4] = test: Biodistribution by 1 h PET/CT, CFPAC-1 subcutaneous tumor-bearing mice and normal mice; conditions: normal mice (FIG. 27); 1 h PET/CT
Method: In order to intuitively evaluate the in vivo targeting specificity for denatured collagen and the in vivo biodistribution effects of the various constructed CHP-PET probes, this test example used the human pancreatic cancer cell line CFPAC-1 to construct a mouse subcutaneous tumor model. Subsequently, approximately 8.42 MBq of the collagen hybridizing peptide probes prepared in the above Examples 5-7 and Comparative Examples 3-6 were injected via the tail vein, and PET-CT imaging was performed at designated times.
The specific construction method for the mouse subcutaneous tumor model was as follows: 3 × 10^6 CFPAC-1 cells were injected into the right shoulder/back of 6-week-old female Balb/c-nu nude mice, and subsequent experiments were conducted when the subcutaneous tumors reached 200 mm^3.

[5] = test system: PDAC lesions in the KPC model; test: Static PET, ex vivo PET and biodistribution for PDAC lesions in the transgenic KPC model
Description: Since the probes target the ECM, there are significant differences between the tumor ECM induced after injecting human tumor cells, whether in subcutaneous or orthotopic tumor models, and the real tumor ECM. […] The probes prepared in the examples of the present disclosure were used to detect PDAC lesions in the KPC model (>16 weeks of age) to further screen for preferred targeting probes.
The specific experimental method was as follows: KPC mice and normal mice of the same age were taken, and approximately 10 MBq of ^68Ga-Cy5-CHP was injected into the tail vein of the mice, respectively. Static scans were performed for 2 h. After the static scans, the mice were sacrificed, the pancreas was harvested for ex vivo PET, and the radioactive biodistribution of all organs was determined.
In order to adjust the biodistribution of radionuclide-labeled molecular probes and thereby improve the in vivo imaging effect of pancreatic tumors, in this section, ^68Ga-Cy5-CHP was improved by using another metal nuclide, ^64Cu, i.e., ^64Cu-Cy5-CHP prepared in the above Example 3 was used for further detection. The specific method was as follows: Approximately 10 MBq of ^64Cu-Cy5-CHP was injected into the tail vein of KPC mice (>16 weeks of age) and normal mice of the same age. Static scans were performed at multiple time points of 2 h, 4 h, 6 h, and 8 h. After 8 h, the pancreas was harvested for ex vivo PET.
In this section, the nuclide was changed to Al^18F, i.e., the Al^18F-Cy5-CHP probe prepared in Example 4 was used for in vivo imaging of pancreatic tumors. The specific method was as follows: approximately 10 MBq of Al^18F-Cy5-CHP was injected into the tail vein of KPC mice (>16 weeks of age) and normal mice of the same age, and a 3 h static scan was performed.

PanIN lesions = test: 2 h static PET-CT detection of PanIN lesions in 8-week-old KPC mice
Method: In order to explore whether radionuclide-labeled CHP probes can detect pancreatic intraepithelial neoplasia (PanIN) lesions in vivo, this test example employed the Al^18F-Cy5-CHP probe using younger KPC mice. Theoretically, 8-week-old KPC mice have not yet progressed to the PDAC stage. These KPC mice and normal mice of the same age were injected with approximately 10 MBq of Al^18F-Cy5-CHP via the tail vein, followed by a 2 h static PET-CT scan.
The detection results are shown in FIG. 14A to FIG.14C, where FIG. 14A is a representative PET image of the 2 h static scan of Al^18F-Cy5-CHP, FIG. 14B is the ex vivo PET result of the pancreas, and FIG. 14C is the quantification of pancreatic radioactivity uptake. […] After imaging, the pancreas was harvested for ex vivo PET and its radioactivity was measured.
Furthermore, in this test example, frozen sections of the pancreas were prepared for HE staining and CHP counterstaining. […] This is because, during the evolution of PDAC, a large amount of unwound collagen already exists as early as the PanIN stage. […] It can be seen that the Al^18F-Cy5-CHP probe of the present disclosure has an excellent signal-to-noise ratio, enabling it to successfully detect such minute lesions as PanIN, providing a new tool for the early detection of PDAC.

[6] = KPC mice >16 weeks, approx. 10 MBq tail vein, 3 h static PET scan

Cc1ccc(=O)n(-c2ccccc2)c1
lung uptake of the probe after PFD treatment (denatured collagen [1]; PFD from one day after bleomycin modeling, ^68Ga-Cy5-CHP on day 21, versus untreated BM control): significantly reduces the lung uptake of the probe in vivo

Oc1cc2c(cc1O)[C@H]1c3ccccc3CN[C@@H]1CC2
lung uptake of the probe after DHX treatment (denatured collagen [1]; DHX from 10 days after bleomycin modeling, ^68Ga-Cy5-CHP on day 24, versus untreated BM group): significantly higher than that of the untreated BM disease group

Cy3-Ahx-K(NOTA-^68Ga)-K(NH2)-Ahx-(GfO)9
^68Ga labeling retained (radioactive TLC) ([2]; 1x PBS): no significant decrease in ^68Ga labeling after approximately 2 h
^68Ga labeling retained (radioactive TLC) ([2]; 10% fetal bovine serum (FBS)): no significant decrease in ^68Ga labeling after approximately 2 h
tumor PET signal during 1 h dynamic imaging, blocking group (denatured collagen [3]; pre-injection of a blocking dose of NOTA-Cy3-CHP): sustained low signal
tumor visibility on PET images, blocking group (denatured collagen [3]; pre-injection of a blocking dose of non-radiolabeled NOTA-Cy3-CHP, 30 min and 60 min): tumors are not observable
tumor PET signal during 1 h dynamic imaging (denatured collagen [3]; subcutaneous CFPAC-1 tumor, approx. 8.42 MBq tail vein): washes out from the tumor slowly and maintains a significantly high signal throughout the dynamic imaging process
tumor visibility on PET images (denatured collagen [3]; subcutaneous CFPAC-1 tumor, approx. 8.42 MBq tail vein, 30 min and 60 min of 1 h dynamic PET): subcutaneous tumors can be clearly observed at 0.5 h and 1 h
ex vivo tumor uptake (denatured collagen [3]; tumors harvested after 1 h dynamic PET, versus scrambled and blocking groups): significantly higher tumor uptake

Cy5-Ahx-K(NOTA-Al^18F)-K(NH2)-Ahx-(GfO)9
liver uptake (denatured collagen [4]): low liver uptake
renal uptake (denatured collagen [4]): renal uptake is strong
PDAC detection compared with ^18F-FDG ([5]; 3 h static scan versus 1 h static PET scan of ^18F-FDG): superior to traditional ^18F-FDG
in vivo detection of PDAC lesions [5, 6]: PDAC lesions in the KPC model can be accurately detected with high clarity and signal-to-noise ratio
uptake in the liver and spleen [5, 6]: significantly reduced
uptake in the liver compared to ^68Ga-Cy5-CHP and ^64Cu-Cy5-CHP ([5]; KPC model): further reduced
uptake in the pancreas compared to ^68Ga-Cy5-CHP and ^64Cu-Cy5-CHP ([5]; KPC model): further increased
pancreatic radioactivity uptake (ex vivo PET and radioactivity measurement) (PanIN lesions; 8-week-old KPC mice versus normal mice of the same age, after imaging): stronger Al^18F-Cy5-CHP uptake in the KPC pancreas
PET image signal at the pancreas (PanIN lesions; 8-week-old KPC mice, approx. 10 MBq tail vein, 2 h static PET-CT): high-signal points at the anatomical location of the pancreas in the abdomen
detection of PanIN lesions, confirmed by pathology (PanIN lesions; HE staining and CHP counterstaining of pancreas frozen sections): successfully detect such minute lesions as PanIN
